Test results: PubChem BioAssay (NCI)
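Compound exposure: 48 hours, 5 concentrations, 96-well plates. At the TGI there is no net growth.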

What was measured:
Test in all cases: NCI-60 cell line screen, 48 h
HCC-2998 colon = test system: HCC-2998 colon
LXFL 529 NSCLC = test system: LXFL 529 NSCLC
KM20L2 colon = test system: KM20L2 colon
CCRF-CEM leukemia = test system: CCRF-CEM leukemia
UO-31 renal = test system: UO-31 renal
U251 CNS = test system: U251 CNS
UACC-62 melanoma = test system: UACC-62 melanoma
M19-MEL melanoma = test system: M19-MEL melanoma
M14 melanoma = test system: M14 melanoma
NCI-H522 lung = test system: NCI-H522 lung
HOP-18 NSCLC = test system: HOP-18 NSCLC
ACHN renal = test system: ACHN renal
RPMI-8226 leukemia = test system: RPMI-8226 leukemia
EKVX NSCLC = test system: EKVX NSCLC
MOLT-4 leukemia = test system: MOLT-4 leukemia
A549 NSCLC = test system: A549 NSCLC
OVCAR-8 ovarian = test system: OVCAR-8 ovarian
SNB-75 CNS = test system: SNB-75 CNS
HL-60(TB) leukemia = test system: HL-60(TB) leukemia
SK-MEL-28 melanoma = test system: SK-MEL-28 melanoma
DMS 273 small cell lung = test system: DMS 273 small cell lung
SNB-19 CNS = test system: SNB-19 CNS
KM12 colon = test system: KM12 colon
SN12C renal = test system: SN12C renal
IGROV1 ovarian = test system: IGROV1 ovarian
RXF-631 renal = test system: RXF-631 renal
HOP-92 NSCLC = test system: HOP-92 NSCLC
SF-539 CNS = test system: SF-539 CNS
SR leukemia = test system: SR leukemia
DMS 114 small cell lung = test system: DMS 114 small cell lung
XF 498 CNS = test system: XF 498 CNS
HOP-62 NSCLC = test system: HOP-62 NSCLC
A498 renal = test system: A498 renal
SNB-78 CNS = test system: SNB-78 CNS
SK-OV-3 ovarian = test system: SK-OV-3 ovarian
HCT-116 colon = test system: HCT-116 colon
SF-295 CNS = test system: SF-295 CNS
SW-620 colon = test system: SW-620 colon
NCI-H23 lung = test system: NCI-H23 lung
OVCAR-5 ovarian = test system: OVCAR-5 ovarian
OVCAR-3 ovarian = test system: OVCAR-3 ovarian
DLD-1 colon = test system: DLD-1 colon
SK-MEL-5 melanoma = test system: SK-MEL-5 melanoma
UACC-257 melanoma = test system: UACC-257 melanoma
OVCAR-4 ovarian = test system: OVCAR-4 ovarian
HT29 colon = test system: HT29 colon
CAKI-1 renal = test system: CAKI-1 renal
NCI-H322M lung = test system: NCI-H322M lung
TK-10 renal = test system: TK-10 renal
RXF 393 renal = test system: RXF 393 renal
HCT-15 colon = test system: HCT-15 colon
K-562 leukemia = test system: K-562 leukemia
786-0 renal = test system: 786-0 renal
SF-268 CNS = test system: SF-268 CNS
NCI-H460 lung = test system: NCI-H460 lung

Measured: TGI

Cc1ccccc1NC1CC(C)(C)NC(C)(C)C1
> 100 µM: all assays above
